Results on two compounds are retold here after ChEMBL document CHEMBL1157610, “Bis(morpholino-1,3,5-triazine) derivatives: potent adenosine 5'-triphosphate competitive phosphatidylinositol-3-kinase/mammalian target of rapamycin inhibitors: discovery of compound 26 (PKI-587), a highly efficacious dual inhibitor” (J Med Chem, 2010).

By UniProt entry, the sequences of proteins in these tests, tags left out. Where a name states a change or a piece, a line headed by the entry shows the natural chain unless it says otherwise.
UniProt P42336, whole entry: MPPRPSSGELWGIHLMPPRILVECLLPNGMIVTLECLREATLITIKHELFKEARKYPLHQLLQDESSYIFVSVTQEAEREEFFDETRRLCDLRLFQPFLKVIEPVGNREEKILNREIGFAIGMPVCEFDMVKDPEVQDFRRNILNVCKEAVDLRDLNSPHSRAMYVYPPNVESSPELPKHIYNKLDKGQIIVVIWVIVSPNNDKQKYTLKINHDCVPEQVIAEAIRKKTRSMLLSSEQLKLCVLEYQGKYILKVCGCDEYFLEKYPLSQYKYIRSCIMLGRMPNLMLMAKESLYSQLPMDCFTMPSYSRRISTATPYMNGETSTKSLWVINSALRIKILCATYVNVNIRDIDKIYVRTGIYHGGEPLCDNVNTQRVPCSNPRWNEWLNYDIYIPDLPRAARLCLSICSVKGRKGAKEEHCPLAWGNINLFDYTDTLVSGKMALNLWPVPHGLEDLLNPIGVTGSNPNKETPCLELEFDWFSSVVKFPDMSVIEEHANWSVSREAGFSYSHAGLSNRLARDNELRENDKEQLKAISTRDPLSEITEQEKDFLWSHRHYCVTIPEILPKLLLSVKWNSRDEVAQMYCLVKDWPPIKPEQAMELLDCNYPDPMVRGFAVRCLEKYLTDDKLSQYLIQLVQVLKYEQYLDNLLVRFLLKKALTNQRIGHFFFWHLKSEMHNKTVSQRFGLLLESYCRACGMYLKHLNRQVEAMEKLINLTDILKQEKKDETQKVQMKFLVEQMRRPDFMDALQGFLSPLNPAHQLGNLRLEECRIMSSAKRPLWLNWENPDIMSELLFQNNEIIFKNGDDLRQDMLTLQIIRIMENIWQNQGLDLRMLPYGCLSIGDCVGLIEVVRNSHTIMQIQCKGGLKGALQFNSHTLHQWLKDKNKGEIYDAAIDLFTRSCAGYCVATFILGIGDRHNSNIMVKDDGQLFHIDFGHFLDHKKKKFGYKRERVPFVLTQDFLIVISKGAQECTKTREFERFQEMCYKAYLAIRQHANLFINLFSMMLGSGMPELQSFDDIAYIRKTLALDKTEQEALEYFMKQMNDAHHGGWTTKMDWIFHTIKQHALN
UniProt P48736: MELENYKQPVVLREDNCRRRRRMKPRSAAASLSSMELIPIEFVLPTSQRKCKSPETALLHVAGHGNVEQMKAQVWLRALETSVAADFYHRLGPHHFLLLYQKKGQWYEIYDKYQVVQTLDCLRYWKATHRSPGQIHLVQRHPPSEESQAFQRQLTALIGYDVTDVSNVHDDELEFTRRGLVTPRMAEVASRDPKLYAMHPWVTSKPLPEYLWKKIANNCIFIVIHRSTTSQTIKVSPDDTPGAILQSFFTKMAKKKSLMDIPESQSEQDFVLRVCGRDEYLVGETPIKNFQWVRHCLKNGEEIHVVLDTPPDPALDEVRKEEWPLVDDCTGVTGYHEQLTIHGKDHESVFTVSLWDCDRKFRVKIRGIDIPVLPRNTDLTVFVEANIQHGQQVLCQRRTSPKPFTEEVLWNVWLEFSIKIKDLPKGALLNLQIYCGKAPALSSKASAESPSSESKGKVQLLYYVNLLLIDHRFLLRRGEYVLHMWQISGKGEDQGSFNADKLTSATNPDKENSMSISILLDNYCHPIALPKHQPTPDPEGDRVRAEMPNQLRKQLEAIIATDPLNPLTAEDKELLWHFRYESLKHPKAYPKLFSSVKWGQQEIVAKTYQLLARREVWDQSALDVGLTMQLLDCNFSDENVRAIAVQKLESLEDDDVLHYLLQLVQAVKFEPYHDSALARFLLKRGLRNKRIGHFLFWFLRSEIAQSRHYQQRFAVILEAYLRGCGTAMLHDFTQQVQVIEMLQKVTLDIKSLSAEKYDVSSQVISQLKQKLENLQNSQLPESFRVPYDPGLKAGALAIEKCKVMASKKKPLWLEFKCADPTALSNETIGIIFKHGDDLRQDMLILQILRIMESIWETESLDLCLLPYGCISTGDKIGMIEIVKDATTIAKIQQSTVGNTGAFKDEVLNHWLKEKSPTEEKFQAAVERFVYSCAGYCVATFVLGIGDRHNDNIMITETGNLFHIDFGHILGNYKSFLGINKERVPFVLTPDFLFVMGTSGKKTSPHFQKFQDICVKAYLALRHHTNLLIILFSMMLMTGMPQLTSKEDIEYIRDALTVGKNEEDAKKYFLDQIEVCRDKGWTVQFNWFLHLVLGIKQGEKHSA

What is called IC50 is the concentration that gives 50% inhibition.

Experiment [1] has as its system MDA-MB-361. Nature of the experiment: cells. The note with it: Homo sapiens.
Experiment [2] deals with Phosphatidylinositol 4,5-bisphosphate 3-kinase catalytic subunit alpha isoform (Homo sapiens, UniProt P42336).
Experiment [3] has as its target Phosphatidylinositol 4,5-bisphosphate 3-kinase catalytic subunit gamma isoform (Homo sapiens, UniProt P48736).

Molecules are shown by their SMILES.

`CNC(=O)c1ccc(NC(=O)Nc2ccc(-c3nc(N4CCOCC4)nc(N4CCOCC4)n3)cc2)cc1`: the IC50 is 19 nM in experiment [1] and 1.5 nM in experiment [2].

In experiment [3], `O=C(Nc1ccc(-c2nc(N3CCOCC3)nc(N3CCOCC3)n2)cc1)Nc1cccnc1` registered an IC50 of 34 nM.
